What was measured:
[1] = biological target: ezrin T567 phosphorylation by PKC,τ (Mus musculus, UniProt P26040); assay: In vitro kinase assay: recombinant ezrin T567 phosphorylation by PKC,τ; conditions: read-out: IC50, phosphorylation of ezrin by PKC,τ, phosphospecific antibody immunoblot densitometry
Protocol: (§1) FIG. 2 illustrates NSC305787 and NSC668394 inhibit ezrin T567 phosphorylation. (A) K7M2 metastatic OS cell line was treated with NSC305787 (10 μM) and NSC668394 (10 μM) for 6 hours. NSC305787 and NSC668394 inhibited phosphorylation of endogenous ezrin protein and its interaction with actin without altering cellular ezrin protein levels (B and C). The effect of NSC305787 and NSC668394 on recombinant ezrin phosphorylation by recombinant PKC, was tested in an in vitro kinase assay. Phoshorylation of ezrin was detected by a phosphospecific antibody following PAGE and immunoblotting. Experiments were repeated three times and densitometric analysis of bands was used for calculation of % inhibition (graphs). Error bars represents s.d. from three independent experiments. Kinase activities of PKC,τ, PKC,α and PKC,γ were also evaluated with a nonspecific substrate in the presence of NSC305787 and NSC668394 by a radioactive in vitro kinase assay. Data analysis was done by using a sigmoidal dose-response equation where log EC50 for each curve with the ezrin substrate and the non-specific substrate were compared to each other (P=0.0118 for NSC305787 and P=0.0084 for NSC668394).
(§2) 500 ng of recombinant ezrin protein in kinase assay mix (200 μM ATP) was incubated with the compounds at 1-100 μM concentrations for 15 minutes on ice, then 50 ng PKC,τ (Millipore, Billerica, Mass.) was added. […]

Chains of the proteins cited; added tags and fusions are not shown.
UniProt P26040, whole entry: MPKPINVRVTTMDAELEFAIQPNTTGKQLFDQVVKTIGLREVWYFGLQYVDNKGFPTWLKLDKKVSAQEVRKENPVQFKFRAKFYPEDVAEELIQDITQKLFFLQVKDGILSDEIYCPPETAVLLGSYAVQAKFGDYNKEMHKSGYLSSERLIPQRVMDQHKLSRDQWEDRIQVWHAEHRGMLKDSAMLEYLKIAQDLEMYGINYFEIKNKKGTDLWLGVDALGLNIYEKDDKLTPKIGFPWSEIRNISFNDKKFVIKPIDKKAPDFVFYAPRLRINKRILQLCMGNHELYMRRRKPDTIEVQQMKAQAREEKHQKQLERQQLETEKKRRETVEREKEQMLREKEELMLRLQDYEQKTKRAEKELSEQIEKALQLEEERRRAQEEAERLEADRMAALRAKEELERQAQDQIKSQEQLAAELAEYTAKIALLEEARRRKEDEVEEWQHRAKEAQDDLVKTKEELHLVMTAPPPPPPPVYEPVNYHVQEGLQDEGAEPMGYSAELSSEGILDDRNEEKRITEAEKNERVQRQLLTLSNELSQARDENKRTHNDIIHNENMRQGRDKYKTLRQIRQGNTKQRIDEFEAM
UniProt P41743, whole entry: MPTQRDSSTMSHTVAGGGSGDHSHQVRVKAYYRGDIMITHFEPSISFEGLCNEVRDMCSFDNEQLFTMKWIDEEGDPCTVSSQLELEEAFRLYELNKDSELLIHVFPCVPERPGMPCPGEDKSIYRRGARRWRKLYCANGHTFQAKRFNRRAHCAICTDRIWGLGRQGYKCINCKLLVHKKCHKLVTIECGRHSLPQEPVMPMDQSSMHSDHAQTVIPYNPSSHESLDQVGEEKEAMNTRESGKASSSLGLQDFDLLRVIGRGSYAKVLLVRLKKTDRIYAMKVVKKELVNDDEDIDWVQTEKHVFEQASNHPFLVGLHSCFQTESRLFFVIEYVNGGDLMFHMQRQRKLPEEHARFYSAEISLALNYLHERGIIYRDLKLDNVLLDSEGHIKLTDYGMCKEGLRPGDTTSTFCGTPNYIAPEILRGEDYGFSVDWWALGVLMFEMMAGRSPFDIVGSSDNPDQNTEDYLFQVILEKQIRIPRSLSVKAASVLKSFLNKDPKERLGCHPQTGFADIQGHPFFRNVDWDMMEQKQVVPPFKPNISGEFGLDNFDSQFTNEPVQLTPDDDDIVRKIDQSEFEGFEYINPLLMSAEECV

[2] = test system: K7M2 metastatic OS tumor cells; assay: In vivo experimental lung metastasis model, K7M2 cells; parameters: species or system mice
Protocol: (§3) FIG. 6 illustrates NSC305787 and NSC668394 inhibit in vivo OS metastatic growth in lungs. (A) K7M2 metastatic OS tumor cells (1×10^6) were injected via tail vein. Vehicle (1% DMSO), NSC305787 (240 μg/kg) and NSC668394 (226 μg/kg) were injected 5 days a week intraperitoneally. Kaplan-Meier survival curves show percent survival for NSC305787 and NSC668394 treatment over time. Median survival of vehicle, NSC305787 and NSC668394 treated K7M2 cells were 28.5, 50, and 49 days after tumor cell injection. […] (B) Fluorescence pictures of whole lungs are given. There is a significant decrease in the number of the GFP expressing metastatic foci in the lung tissues of the NSC305787 and NSC668394 treated groups. (C) GFP expressing ezrin independent MNNG, human OS cells were injected to mice and treated with vehicle (1% DMSO), NSC305787 (240 μg/kg) and NSC668394 (226 μg/kg). Survival of each group is not different probably because MNNG is an ezrin independent cell line. Median survival of vehicle, NSC305787 and NSC668394 treated MNNG cells were 50.5, 49, and 48.5 days after tumor cell injection. (D) Fluorescent images of the lung tissues of this group are given. There is not a significant difference in the number of the GFP expressing metastatic foci in the lung tissues of the NSC305787 and NSC668394 treated groups. […]

[3] = test system: Gli reporter (hedgehog pathway); assay: Gli reporter assays; format: cell-based, mammalian cell lines; conditions: data not shown
ezrin in K7M2 OS cells = ezrin in K7M2 OS cells (Mus musculus, UniProt P26040); assay: Endogenous ezrin T567 phosphorylation and actin binding in K7M2 cells (immunoprecipitation/immunoblot); conditions: 10 μM
Protocol: (§4) K7M2 cells that were treated with embodied compounds and resolved protein lysates were immunoblotted for co-precipitated phosphorylated ezrin (TOP), or actin (BOTTOM). 4.0×10^6 K7M2 cells were plated in 15 cm dishes. After 24 h, the plates are at least 70% confluent. Media was removed and 10 μM of compound in SF DMEM was added. After the ezrin protein was incubated for 5 h with the indicated compound, the plates were lysed with PLB containing Calyculin A. 2 μL of Ezrin Ab and 10 μM of the compound (prepared in PLB) were added to the lysate and allowed to incubate overnight (14 h), followed by tumbling with Agarose IgG beads. The mixture was run on 10% acrylamide gel and transferred overnight.
as §4, with “removed and either 7 μM or 10 μM” for “removed and 10 μM”
For analysis of actin binding to FL and mutant ezrin, K12 cell lysate was incubated with recombinant ezrin protein, then subjected to immunoprecipitation with ezrin antibody (Sigma, St. Louis, Mo.) and immunoblotted with actin antibody (Santa Cruz, Santa Cruz, Calif.). For analysis of inhibition of small molecules on ezrin phosphorylation and actin binding, K7M2 cell lysates were treated with compounds at 10 μM concentration for 6 hours, followed by immunoprecipitation with the ezrin antibody and immunoblotted with phospho-ezrin (Cell Signaling, Danvers, Mass.), actin and ezrin antibodies.

PKC,τ, PKC,α and PKC,γ = assay: Radioactive in vitro kinase assay of PKC isoforms with nonspecific substrate; conditions: doses tested maximum 100 μM
Protocol: as §1, §2

PKC,τ = PKC,τ (Homo sapiens, UniProt P41743); assay: SPR direct binding to PKC,τ (Biacore); conditions: read-out: KD, binding to PKC,τ, data not shown
zebrafish embryos = assay: Zebrafish embryo development assay; conditions: 10 μM
Protocol: Animals. Zebrafish (Danio rerio) were raised, maintained and crossed as described before (Westerfield, M. University of Oregon Press, Eugene. Or., 1993). Development of embryos was studied at 28° C. and staging was determined by morphological characteristics (Kimmel, C. B., et al., Dev. Dyn. 203, 253-310 (1995)).
A translation blocking anti-ezrin morpholino oligonucleotide (MO), described and validated by Link et al. (Link, V., et al., J. Cell Sci., 119, 2073-2083 (2006)), MO1, 5′-[…] (SEQ ID NO:1), was synthesized by Gene-Tools, LCC (Philomath, Oreg.). MOs were microinjected into one to four cell stage embryos.
Zebrafish embryos were arrayed, three per well, in 96-well plates. Compounds were added at 1-33 μM concentrations. Embryos were observed, and photographed, at 70% epiboly, 24-28 hours post fertilization (hpf) and 48 hpf.

[4] = test system: K7M2, K12 and HUVEC cells; assay: Toxicity to cells at invasion assay concentrations; conditions: 1 μM and 10 μM; data not shown
Protocol: Chemotaxis experiments were performed in 96 well Boyden chamber as described previously (Chen, K., et al., Pediatr. Blood Cancer, 51, 349-355 (2008)). To measure effect of compounds on cellular toxicity, WST viability assay (Roche, Indianapolis, Ind.) was performed in parallel to chemotaxis experiments.

K12 cells = assay: Invasion of HUVEC monolayer by K12 cells (ECIS, xCELLigence)
Protocol: (§5) FIG. 3 illustrates NSC305787 and NSC668394 inhibit ezrin mediated invasion of OS cells. (A) Endogenous ezrin protein levels in K12 and K7M2 cells are shown. Equal loading is determined by blotting with an actin antibody. Both NSC305787 (B) and NSC668394 (C) at 1 μM and 10 μM concentrations inhibited invasion of K7M2 cells through a HUVEC monolayer when compared to the control (1% DMSO). […] Error bars represent standard deviation from duplicate data points. The experiments were performed in duplicates. Cell index is a measurement parameter with no units. In this assay a decrease in cell index represents invasion of HUVEC layer by OS cells. It is measured according to the following formula: Cell index=((Rt−R0)/F where, Rt is resistance at time point t, R0 is background resistance (measured with media alone, no cells), and F is frequency at which measurement is taken (10 kHz).
(§6) The anti-invasive potential of NSC305787 and NSC668394 were evaluated by using electric cell impedance sensing (ECIS) on a Roche xCELLigence system (Roche, Indianapolis, Ind.). Briefly, HUVEC cells (25,000/well) were seeded in a 96-well plate in EGM-2 media (Lonza, Basel, CH). […] This time point was accepted as 0 hr of treatment and invasion was monitored during the following 6 hrs by measuring changes in resistance at the cell-electrode interphase.

MNNG, human OS cells = assay: In vivo experimental lung metastasis model, ezrin independent MNNG cells; parameters: species or system mice
Protocol: as §3

[5] = test system: GFP expressing K7M2 OS cells; assay: Pulmonary metastasis assay (PuMA), lung organ culture; conditions: 10 μM
Protocol: FIG. 5 illustrates NSC305787 and NSC668394 inhibit OS metastatic growth in lung organ culture. GFP expressing K7M2 OS cells (2×10^5) were injected to tail vein of female BALB/c mice. Within 15 min of tumor cells injection, mice were euthanized and lungs were injected with a mixed agarose/medium solution and then were removed. Complete transverse sections (1-2 mm in thickness) were made from each lobe and 4-5 lung sections were placed on a single 1.5×0.7 cm sterile Gelfoam section. Lung sections were incubated at 37° C. in humidified conditions of 5% CO2. Fresh medium or small molecules (10 μM) were replaced every other day. (A) Quantitation of the fluorescence signal from NSC305787 (10 μM) and NSC668394 (10 μM) treated organ cultures over time. Metastatic burden was quantified by measuring the fluorescent area of metastatic cells in each lung section at each time point and was expressed as mean fluorescent area (mean fluorescent area of each lung section over 4 lung sections). Mean fluorescent area was normalized to 100 pixels for day 0 to allow quantitative evaluation of metastatic progression over time. Data are represented as mean .s.d. from three independent experiments. (B) Fluorescence pictures of a representative culture treated with 10 μM NSC305787 and 10 μM NSC668394 are given on the right panel. […]

K7M2 cells = assay: Invasion of HUVEC monolayer by K7M2 cells (ECIS, xCELLigence); conditions: 1 μM and 10 μM, vs control 1% DMSO
Protocol: as §5, §6

[6] = biological target: ezrin / poly-A-binding protein 1 (PABP1) interaction (Mus musculus, UniProt P26040); assay: Ezrin-PABP1 interaction by immunoprecipitation and western blot; conditions: cells treated 60 min prior to immunoprecipitation
Protocol: (A) Total cell lysates from K7M2 osteosarcoma cells were immunoprecipitated by using an anti-ezrin antibody. As a control, non-specific total IgG was used. Immunoprecipitates were run on SDS-PAGE and Western Blot was performed using anti-ezrin (lower panel) and anti-PABP1 (upper panel) antibodies. PABP1 protein was detected in immunoprecipitates of ezrin, suggetsing that these two proteins interact with each other in a protein complex. (B) Ezrin-PABP1 interaction was also evaluated in an ELISA experiment where recombinant ezrin protein was immmobilized on surface and total cell lysates from osteosarcoma cells were applied on top. Amount of PABP1 binding to ezrin on the surface was detected by a anti-PABP1 primary antibody followed by enzyme linked secondary antibody. (C) Immunoprecipitation and western experiment was prepared as described in panel A. Cells were treated with NSC305787 (compound 8) and NSC668394 (compound 16) for 60 min prior to immunoprecipitation. Both NSC305787 and NSC668394 inhibited interaction of PABP1 with ezrin

O=C1C=C(NCCc2cc(Br)c(O)c(Br)c2)C(=O)c2ncccc21
IC50 [1]: 7.81 µM | number of GFP expressing metastatic foci in lung tissues ([2]; K7M2 cells): significant decrease | median survival after tumor cell injection ([2]; K7M2 cells by tail vein, i.p. 5 days a week, vehicle 28.5 days): 49 days | inhibition in Gli reporter assays [3]: did not observe any significant inhibition | cellular ezrin protein levels (ezrin in K7M2 OS cells): without altering cellular ezrin protein levels | T567 phosphorylation of endogenous ezrin (ezrin in K7M2 OS cells; 6 hours): inhibited | actin binding of ezrin (ezrin in K7M2 OS cells; 6 hours): inhibited | inhibition of PKC activity (PKC,τ, PKC,α and PKC,γ): did not show any significant inhibition | Kd (PKC,τ): 160 µM | cycloptic embryos at 28 hpf (zebrafish embryos): 98% | toxicity to K7M2, K12 and HUVEC cells [4]: not toxic | invasion of K12 cells (K12 cells; 1 μM): did not have any effect | invasion of K12 cells (K12 cells; 10 μM): inhibited invasion by K12 cells slightly | number of GFP expressing metastatic foci in lung tissues (MNNG, human OS cells; MNNG cells): not a significant difference | median survival after tumor cell injection (MNNG, human OS cells; MNNG cells by tail vein, i.p. 5 days a week, vehicle 50.5 days): 48.5 days | lung metastasis of K7M2 cells in lung organ culture (GFP fluorescence) [5]: significantly inhibited | invasion of K7M2 cells through HUVEC monolayer (K7M2 cells): inhibited invasion | interaction of PABP1 with ezrin [6]: inhibited

From patent publication US9522908B2, “Ezrin inhibitors and methods of making and using” (Georgetown University, priority 2010, dated 2016)
